B1: AB206-ADL1-D14 (conjugate)
heavy: EVQLLESGGGLVQPGGSLRLSCAASGFTFSHYMMAWVRQAPGKGLEWVSRIGPSGGPTHYADSVKGRFTISRDNSKNTLYLQMNSLRAEDTAVYYCAGYDSGYDYVAVAGPAEYFQHWGQGTLVTVSSASTKGPSVFPLAPSSKSTSGGTAALGCLVKDYFPEPVTVSWNSGALTSGVHTFPAVLQSSGLYSLSSVVTVPSSSLGTQTYICNVNHKPSNTKVDKKV[sequence of human IgG1 Fc not given]
light: DIQMTQSPSSLSASVGDRVTITCRASQSISTWLAWYQQKPGKAPKLLIYKASNLHTGVPSRFSGSGSGTEFSLTISGLQPDDFATYYCQQYNSYSRTFGQGTKVEIKRTVAAPSVFIFPPSDEQLKSGTASVVCLLNNFYPREAKVQWKVDNALQSGNSQESVTEQDSKDSTYSLSSTLTLSKADYEKHKVYACEVTHQGLSSPVTKSFNRGEC
B2: AB206-ADL12-D2 (conjugate)
heavy: B1 heavy
light: B1 light
B3: AB206-ADL12-D1 (conjugate)
heavy: B1 heavy
light: B1 light
B4: AB206-ADL5-D25 (conjugate)
heavy: B1 heavy
light: B1 light
B5: AB206-ADL10-D1 (conjugate)
heavy: B1 heavy
light: B1 light
B6: AB206-ADL5-D15 (conjugate)
heavy: B1 heavy
light: B1 light
B7: AB206-ADL1-D4 (conjugate)
heavy: B1 heavy
light: B1 light
B8: AB206-ADL5-D19 (conjugate)
heavy: B1 heavy
light: B1 light
B9: AB206-ADL1-D8 (conjugate)
heavy: B1 heavy
light: B1 light
B10: AB206-ADL5-D2 (conjugate)
heavy: B1 heavy
light: B1 light

Experiment: SEC analysis - aggregation / percent monomer
Type: physicochemical
Conditions: anti-EPHA2 ADCs
Description: The peak area absorbance at 280 nm was determined for the high molecular weight and monomeric conjugate components by area under the curve integration.
SEC analysis was performed as described in section 3.3.2.

Molecule	Percent Monomer [%]
B1	80.000
B2	80.000
B3	90.000
B4	96.000
B5	97.000
B6	96.000
B7	95.000
B8	97.000
B9	95.000
B10	99.000

Experiment: HPLC analysis - free drug
Type: physicochemical
Conditions: anti-EPHA2 ADCs
Description: Conjugate was precipitated with 10 volumes of acetonitrile on ice for 2 hours and spun down. Supernatants containing residual unconjugated payload were then injected onto an Agilent Poroshell 120 SB—C18 120A column (4.6×100 mm, 2.7 μm) and eluted with a gradient of 45% B to 70% B over 10 min at RT. Mobile phase A was 100% water, mobile phase B was 100% acetonitrile, and the flow rate was 0.6 mL/min with detection at 252 nm. The amount of residual free drug was quantified via UV detection with comparison to the external standard curve of unconjugated linker-payload.
HPLC analysis was performed as described in section 3.3.3.

Molecule	Free Drug (%)
B1	<2
B2	<2
B3	<2
B4	<2
B5	<2
B6	<2
B7	<2
B8	<2
B9	<2
B10	<2

Experiment: LC/MS analysis - DAR
Type: physicochemical
Conditions: anti-EPHA2 ADCs, Table 17

Molecule	DAR
B4	6.000
